Measurements taken from patent publication US20030049260A1, “Method of improving cognitive function” (priority 2001, published 2003).

Test system: patients who underwent CPB with CABG
Experiment: Randomized, double-blind, placebo-controlled study; change in SDMT score from baseline after CABG with CPB
Format: in vivo, human
Settings: for Proportion of patients with % change in symbol digit score of +20% / Proportion of patients with % change in symbol digit score of +15% / Proportion of patients with % change in symbol digit score of +10% / Proportion of patients with Improve in symbol digit score / Proportion of patients with % change in symbol digit score of -20% / Proportion of patients with % change in symbol digit score of -15% / Proportion of patients with % change in symbol digit score of -10% / Proportion of patients with Decline in symbol digit score: all procedures, all patients
Procedure: A randomized, multi-center, double-blind, placebo-controlled study was conducted of a humanized single chain antibody that binds to C5, Pexelizumab, administered to patients who underwent CPB with CABG.
The study population consisted of individuals who elected to undergo non-emergent coronary-artery bypass graft (CABG) surgery, with or without valve surgery, which required the use of a cardiopulmonary bypass (CPB) machine. There were 692 patients involved in the study of bypass related changes in cognitive function as measured by the Symbol Digit Modalities Test (SDMT). Of these, 617 patients underwent CABG only.
A total of 399 CABG only patients received one of the following treatment combinations: i) Bolus 2.0 mg/kg Pexelizumab followed by 0.05 mg/kg/hr Pexelizumab for 24 hours; or ii) placebo. The Pexelizumab or matching placebo was provided as a solution for injection in 30 ml vials with a concentration of 2 mg/ml. Patients received the bolus of study medication ten (10) minutes before the initiation of cardiopulmonary bypass via a unique line. The drug was not to be combined with other medication given via this route. The infusion began immediately following bolus administration, and continued for 24 hours at a constant drip rate.
Patients were evaluated at an initial screening visit at which the SDMT was administered to establish a baseline result for each patient.
The results of the study for day 4 and day 30 for patients who underwent CABG with or without valve surgery are presented in Tables I and II, respectively, below. The relevance of changes in symbol digit scores at day 4 and day 30 was studied.

[1] = 30 d, Bolus/Infusion, placebo 22.9

Substance: Pexelizumab: humanized single chain antibody that binds to C5 (anti-C5 antibody h5G1.1-scFv)
- Proportion of patients with % change in symbol digit score of +20% (4 d, Bolus/Infusion (n = 221), placebo 9.4): 13.1
- Proportion of patients with % change in symbol digit score of +15% (4 d, Bolus/Infusion (n = 221), placebo 12.1): 16.3
- Proportion of patients with % change in symbol digit score of +10% (4 d, Bolus/Infusion (n = 221), placebo 13.9): 20.8
- Proportion of patients with Improve in symbol digit score (4 d, Bolus/Infusion (n = 221), placebo 29.3): 37.1
- Proportion of patients with % change in symbol digit score of -20% (4 d, Bolus/Infusion (n = 221), placebo 40.4): 30.3
- Proportion of patients with % change in symbol digit score of -15% (4 d, Bolus/Infusion (n = 221), placebo 47.1): 34.0
- Proportion of patients with % change in symbol digit score of -10% (4 d, Bolus/Infusion (n = 221), placebo 55.2): 41.2
- Proportion of patients with Decline in symbol digit score (4 d, Bolus/Infusion (n = 221), placebo 70.7): 62.9
- Proportion of patients with % change in symbol digit score of -20% (30 d, Bolus/Infusion, placebo 9.8): 8.1
- Proportion of patients with % change in symbol digit score of -15% (30 d, Bolus/Infusion, placebo 12.6): 10.2
- Proportion of patients with % change in symbol digit score of +20% [1]: 31.0
- Proportion of patients with % change in symbol digit score of -10% [1]: 12.7
- Proportion of patients with % change in symbol digit score of +15% (30 d, Bolus/Infusion, placebo 31.3): 41.6
- Proportion of patients with Decline in symbol digit score (30 d, Bolus/Infusion, placebo 32.4): 19.8
- Proportion of patients with % change in symbol digit score of +10% (30 d, Bolus/Infusion, placebo 41.1): 54.8
- Proportion of patients with Improve in symbol digit score (30 d, Bolus/Infusion, placebo 67.6): 80.2
- Patients with a decline in symbol digit score of greater than or equal to 10% (Day 4, patients undergoing CABG only, bolus/infusion, placebo 56%, p=0.02): 40%
